Laboratory results taken from patent US9408926B2, “KDR and VEGF/KDR binding peptides and their use in diagnosis and therapy” (Bracco Suisse S.A., priority 2002, dated 2016).

Protein sequences, listed by entry. Tags and fused reporters are not part of them. Chains listed by the source or under a name are the forms on record and can include a tag or linker. Residues count along the entry.
UniProt P35968, with tags, fused parts or gaps limits assumed: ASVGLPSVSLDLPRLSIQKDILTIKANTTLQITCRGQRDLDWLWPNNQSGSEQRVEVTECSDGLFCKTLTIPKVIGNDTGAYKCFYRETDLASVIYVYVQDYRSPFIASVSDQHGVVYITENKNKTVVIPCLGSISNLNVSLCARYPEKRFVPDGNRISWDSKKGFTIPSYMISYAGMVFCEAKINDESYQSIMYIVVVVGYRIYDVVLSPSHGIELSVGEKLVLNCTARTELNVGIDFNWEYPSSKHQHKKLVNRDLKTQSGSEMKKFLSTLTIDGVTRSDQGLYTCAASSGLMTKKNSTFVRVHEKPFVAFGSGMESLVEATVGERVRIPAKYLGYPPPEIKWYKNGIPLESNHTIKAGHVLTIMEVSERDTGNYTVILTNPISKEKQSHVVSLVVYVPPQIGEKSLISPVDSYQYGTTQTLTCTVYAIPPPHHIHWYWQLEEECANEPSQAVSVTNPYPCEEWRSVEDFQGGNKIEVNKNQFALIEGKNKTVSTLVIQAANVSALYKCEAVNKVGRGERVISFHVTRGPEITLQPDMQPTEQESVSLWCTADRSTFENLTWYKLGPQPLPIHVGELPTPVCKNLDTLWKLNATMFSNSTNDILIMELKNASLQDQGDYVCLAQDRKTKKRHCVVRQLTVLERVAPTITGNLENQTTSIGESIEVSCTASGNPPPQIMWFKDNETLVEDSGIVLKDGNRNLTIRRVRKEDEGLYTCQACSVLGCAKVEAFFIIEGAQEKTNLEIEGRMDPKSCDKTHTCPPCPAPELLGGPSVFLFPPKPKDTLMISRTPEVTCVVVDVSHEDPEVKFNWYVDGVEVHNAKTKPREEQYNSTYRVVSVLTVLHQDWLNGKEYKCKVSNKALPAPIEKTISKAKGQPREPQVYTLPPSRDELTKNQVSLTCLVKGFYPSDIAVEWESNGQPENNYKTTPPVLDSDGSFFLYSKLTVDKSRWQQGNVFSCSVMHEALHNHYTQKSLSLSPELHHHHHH
UniProt P35968, 20-1356: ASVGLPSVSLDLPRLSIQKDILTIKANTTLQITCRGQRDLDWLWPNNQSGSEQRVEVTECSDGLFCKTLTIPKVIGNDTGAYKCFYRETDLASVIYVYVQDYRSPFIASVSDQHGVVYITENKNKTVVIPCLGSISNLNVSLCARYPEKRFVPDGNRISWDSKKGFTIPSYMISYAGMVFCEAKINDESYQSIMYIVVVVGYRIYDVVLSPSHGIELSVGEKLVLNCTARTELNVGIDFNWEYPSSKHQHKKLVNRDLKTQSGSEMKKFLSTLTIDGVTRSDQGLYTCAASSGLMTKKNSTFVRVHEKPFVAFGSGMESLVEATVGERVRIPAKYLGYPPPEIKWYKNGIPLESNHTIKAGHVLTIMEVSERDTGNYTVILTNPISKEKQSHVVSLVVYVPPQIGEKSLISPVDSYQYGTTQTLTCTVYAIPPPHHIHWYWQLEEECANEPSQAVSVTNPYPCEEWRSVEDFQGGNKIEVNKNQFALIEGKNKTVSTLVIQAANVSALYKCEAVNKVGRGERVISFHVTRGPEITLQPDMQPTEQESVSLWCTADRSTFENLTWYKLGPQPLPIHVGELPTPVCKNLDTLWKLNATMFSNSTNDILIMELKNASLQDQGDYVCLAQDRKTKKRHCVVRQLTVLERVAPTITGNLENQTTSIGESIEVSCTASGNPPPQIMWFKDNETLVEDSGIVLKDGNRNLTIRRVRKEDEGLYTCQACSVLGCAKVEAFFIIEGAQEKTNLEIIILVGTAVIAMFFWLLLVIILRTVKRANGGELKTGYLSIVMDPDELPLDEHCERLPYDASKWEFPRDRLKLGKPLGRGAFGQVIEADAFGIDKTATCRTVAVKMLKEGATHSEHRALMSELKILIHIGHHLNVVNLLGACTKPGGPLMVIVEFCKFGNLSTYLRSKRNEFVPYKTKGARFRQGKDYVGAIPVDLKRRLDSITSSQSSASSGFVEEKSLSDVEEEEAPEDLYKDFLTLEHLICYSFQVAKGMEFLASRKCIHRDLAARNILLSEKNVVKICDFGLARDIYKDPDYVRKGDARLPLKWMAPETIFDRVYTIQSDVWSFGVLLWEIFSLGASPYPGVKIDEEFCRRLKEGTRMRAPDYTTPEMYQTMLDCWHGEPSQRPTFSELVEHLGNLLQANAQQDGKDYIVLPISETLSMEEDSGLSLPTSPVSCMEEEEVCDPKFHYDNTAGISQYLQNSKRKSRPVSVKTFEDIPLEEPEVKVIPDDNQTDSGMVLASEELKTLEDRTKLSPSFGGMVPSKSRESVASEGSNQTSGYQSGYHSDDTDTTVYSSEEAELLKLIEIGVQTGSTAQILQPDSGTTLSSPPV
UniProt P35918, with tags, fused parts or gaps limits assumed: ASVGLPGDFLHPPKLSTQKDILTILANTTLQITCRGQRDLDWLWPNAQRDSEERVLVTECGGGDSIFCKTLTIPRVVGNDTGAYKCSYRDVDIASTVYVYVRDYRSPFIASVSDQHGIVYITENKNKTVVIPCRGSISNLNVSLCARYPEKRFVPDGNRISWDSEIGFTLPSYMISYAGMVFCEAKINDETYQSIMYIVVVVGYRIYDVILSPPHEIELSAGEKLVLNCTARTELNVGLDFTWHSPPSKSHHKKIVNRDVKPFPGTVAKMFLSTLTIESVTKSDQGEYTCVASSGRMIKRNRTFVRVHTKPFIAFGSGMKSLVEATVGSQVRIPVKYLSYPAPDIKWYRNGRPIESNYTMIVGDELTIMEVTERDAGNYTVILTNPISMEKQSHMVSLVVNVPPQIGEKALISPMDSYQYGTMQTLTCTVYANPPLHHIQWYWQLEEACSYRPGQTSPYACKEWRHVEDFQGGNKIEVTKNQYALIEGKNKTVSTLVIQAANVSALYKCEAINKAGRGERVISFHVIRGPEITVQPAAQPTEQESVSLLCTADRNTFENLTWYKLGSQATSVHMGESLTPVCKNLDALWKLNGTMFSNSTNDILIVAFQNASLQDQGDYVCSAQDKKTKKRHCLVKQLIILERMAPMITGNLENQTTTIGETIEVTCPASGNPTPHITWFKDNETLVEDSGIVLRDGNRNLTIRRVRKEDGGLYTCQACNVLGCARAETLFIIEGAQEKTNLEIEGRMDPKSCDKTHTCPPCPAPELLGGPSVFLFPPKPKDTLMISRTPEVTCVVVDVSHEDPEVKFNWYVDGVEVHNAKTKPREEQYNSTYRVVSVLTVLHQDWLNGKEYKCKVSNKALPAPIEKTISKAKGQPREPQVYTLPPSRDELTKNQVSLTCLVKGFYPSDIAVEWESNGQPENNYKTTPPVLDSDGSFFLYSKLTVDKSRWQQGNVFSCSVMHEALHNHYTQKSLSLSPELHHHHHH

Legend:
[1] = target: KDR-Fc (Homo sapiens, UniProt P35968); type: binding; conditions: monodentate peptide; read-out: KD measured by FP against the KDRFc construct
[2] = target: KDR (Homo sapiens, UniProt P35968); test: Inhibition of VEGF-induced KDR receptor activation (phosphorylation) in HUVECs; type: cell-based; set-up: host or cells: HUVEC; conditions: at (up to) 100 nM
[3] = target: T1, murine KDR-Fc (Mus musculus, UniProt P35918); test: BIAcore kinetic analysis of binding to murine KDR-Fc
T1 construct: purchased R & D Systems (Minneapolis, Minn.) 443-KD-050

[4] = system: VEGF-induced migration of HUVECs; test: VEGF-induced HUVEC migration assay; type: cell-based, human
[5] = 5 days at room temperature
[6] = vs. 2700RU murine KDR-Fc surface
[7] = vs. 5000RU murine KDR-Fc surface

Substance: AQDWYYDEILSMADQLRHAFLSGGGK [SEQ ID NO:310]
- Kd [1]: 0.051 µM

Substance: Ac-AGPTWCEDDWYYCWLFGTGGGK (SEQ ID NO:277) [(Biotin-JJK-(O═)C(CH2)3C(═O)-JJ-NH(CH2)4—(S)—CH((Ac-AGPTWCEDDWYYCWLFGTJK (SEQ ID NO:493))-NH)CONH2]—NH2 [D2]
- Effect on VEGF-induced phosphorylation of KDR [2]: had no effect

Substance: Ac-AGPTWCEDDWYYCWLFGTGGGK (SEQ ID NO:277)[(Biotin-JJK-(O═)C(CH2)3C(═O)-JJ-NH(CH2)4—(S)—CH((Ac-VCWEDSWGGEVCFRYDPGGGK (SEQ ID NO:337))-NH)CONH2]—NH2 [D1]
- KD1 (calculated KD based on kd1/ka1) [3, 6]: 0.0175 µM
- KD2 (calculated KD based on kd2/ka1, avidity factor) [3, 6]: 0.000751 µM
- KD1 (calculated KD based on kd1/ka1) [3, 7]: 0.016 µM
- KD2 (calculated KD based on kd2/ka1, avidity factor) [3, 7]: 0.000825 µM

Substance: Ac-AGPTWCEDDWYYCWLFGTGGGK (SEQ ID NO:277){Ac-VCWEDSWGGEVCFRYDPGGGK (SEQ ID NO:337)[S(GalNAc-alpha-D)-G-S(GalNAc-alpha-D)-Glut-S(GalNAc-alpha-D)-G-S(GalNAc-alpha-D)-NH(CH2)4—(S)—CH(Biotin-JJNH—)C(═O)—]—NH2}—NH2 [D27]
- Potency relative to D25 in the migration assay [4]: ten-fold more potent

Substance: Ac-AGPTWCEDDWYYCWLFGTGGGK{Ac-VCWEDSWGGEVCFRYDPGGGK[-Adoa-Adoa-Glut-K(DSPE-PEG2000-NH-Glut)]-NH2 cyclic (2-12) disulfide}-NH2 cyclic (6-13) disulfide [(21)]
- Formation of lyso-compound on storage [5]: no lyso-compound formed after 5 days at room temperature

Substance: Ac-AQDWYYDEILSMADQLRHAFLSGGGGGK (SEQ ID NO:356) {Ac-AQDWYYDEILSMADQLRHAFLSGGGGGK (SEQ ID NO:356) (J-Glut-)-NH2}K(Biotin-JJ)-NH2 [D8]
- Effect on VEGF-induced migration ([4]; 800 nM): had no significant effect

Substance: Ac-VC WEDS WGGEVCFRYDPGGGK (SEQ ID NO:337)[(Biotin-JJK-(O═)C(CH2)3C(═O)-JJ-NH(CH2)4—(S)—CH((Ac-VCWEDSWGGEVCFRYDPGGGK (SEQ ID NO:337))-NH)CONH2]—NH2 [D3]
- Effect on VEGF-induced phosphorylation of KDR [2]: had no effect
